Measured values: US20140315797A1, “Novel N-Terminally Modified Insulin Derivatives” (priority 2010, published 2014)

The chains behind the UniProt entries cited, without tags or fusion partners. Residues count along the entry.
UniProt P06213, 28-746 isoform P06213-2 limits assumed: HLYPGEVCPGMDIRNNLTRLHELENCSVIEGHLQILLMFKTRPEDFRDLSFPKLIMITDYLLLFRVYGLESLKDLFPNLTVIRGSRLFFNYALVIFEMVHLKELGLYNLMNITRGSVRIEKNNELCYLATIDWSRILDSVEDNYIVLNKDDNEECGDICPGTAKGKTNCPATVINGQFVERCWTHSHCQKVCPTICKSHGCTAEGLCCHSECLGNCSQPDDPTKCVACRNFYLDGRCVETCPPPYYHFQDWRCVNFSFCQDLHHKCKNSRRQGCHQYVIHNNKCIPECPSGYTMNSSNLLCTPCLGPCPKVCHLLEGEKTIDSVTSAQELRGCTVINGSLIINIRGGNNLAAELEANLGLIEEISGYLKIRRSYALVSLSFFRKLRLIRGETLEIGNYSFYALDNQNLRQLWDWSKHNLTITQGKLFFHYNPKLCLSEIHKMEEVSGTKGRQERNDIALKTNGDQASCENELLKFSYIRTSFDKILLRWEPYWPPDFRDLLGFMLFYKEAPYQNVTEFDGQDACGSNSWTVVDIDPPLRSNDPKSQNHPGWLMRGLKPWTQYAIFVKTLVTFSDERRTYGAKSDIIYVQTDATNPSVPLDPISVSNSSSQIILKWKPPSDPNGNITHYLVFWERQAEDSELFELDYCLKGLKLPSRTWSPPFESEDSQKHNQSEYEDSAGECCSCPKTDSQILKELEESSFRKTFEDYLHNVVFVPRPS
UniProt P06213, 763-1382 partner limits assumed: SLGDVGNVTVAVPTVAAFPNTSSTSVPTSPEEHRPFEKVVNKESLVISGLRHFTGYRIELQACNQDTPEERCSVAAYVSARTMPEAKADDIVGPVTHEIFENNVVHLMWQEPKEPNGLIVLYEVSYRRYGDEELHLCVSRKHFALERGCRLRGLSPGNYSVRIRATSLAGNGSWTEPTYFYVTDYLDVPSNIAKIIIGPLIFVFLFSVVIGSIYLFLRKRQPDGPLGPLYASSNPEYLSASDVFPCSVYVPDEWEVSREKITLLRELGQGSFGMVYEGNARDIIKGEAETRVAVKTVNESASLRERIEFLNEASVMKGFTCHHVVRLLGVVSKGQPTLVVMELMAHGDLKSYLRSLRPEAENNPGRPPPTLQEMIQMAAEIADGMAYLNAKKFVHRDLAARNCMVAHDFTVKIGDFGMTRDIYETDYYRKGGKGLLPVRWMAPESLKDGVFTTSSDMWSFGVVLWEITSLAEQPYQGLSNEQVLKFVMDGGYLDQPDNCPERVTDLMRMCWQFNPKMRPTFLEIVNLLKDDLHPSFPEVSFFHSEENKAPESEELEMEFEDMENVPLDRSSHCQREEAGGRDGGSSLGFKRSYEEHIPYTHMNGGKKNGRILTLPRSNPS

Experiments:
[1] = target: T1, human insulin receptor (IR-A) (Homo sapiens, UniProt P06213); conditions: relative to affinity of human insulin; […] HSA in binding buffer
Procedure: The affinity of the acylated insulin analogues of this invention for the human insulin receptor is determined by a SPA assay (Scintillation Proximity Assay) microtiterplate antibody capture assay. SPA-PVT antibody-binding beads, anti-mouse reagent (Amersham Biosciences, Cat No. PRNQ0017) are mixed with 25 ml of binding buffer (100 mM HEPES pH 7.8; 100 mM sodium chloride, 10 mM MgSO4, 0.025% Tween-20). Reagent mix for a single Packard Optiplate (Packard No. 6005190) is composed of 2.4 μl of a 1:5000 diluted purified recombinant human insulin receptor (either with or without exon 11), an amount of a stock solution of A14Tyr[^125I]-human insulin corresponding to 5000 cpm per 100 μl of reagent mix, 12 μl of a 1:1000 dilution of F12 antibody, 3 ml of SPA-beads and binding buffer to a total of 12 ml. A total of 100 μl reagent mix is then added to each well in the Packard Optiplate and a dilution series of the insulin derivative is made in the Optiplate from appropriate samples. The samples are then incubated for 16 hours while gently shaken. The phases are the then separated by centrifugation for 1 min and the plates counted in a Topcounter. The binding data were fitted using the nonlinear regression algorithm in the GraphPad Prism 2.01 (GraphPad Software, San Diego, Calif.) and affinities are expressed relative (in percentage (%)) to the affinity of human insulin. […]

[2] = target: T1, human insulin receptor (IR-A); experiment: Insulin receptor affinity, SPA antibody capture assay, 0% HSA; type: binding; conditions: relative to affinity of human insulin
Procedure: The affinity of the acylated insulin analogues of this invention for the human insulin receptor is determined by a SPA assay (Scintillation Proximity Assay) microtiterplate antibody capture assay. SPA-PVT antibody-binding beads, anti-mouse reagent (Amersham Biosciences, Cat No. PRNQ0017) are mixed with 25 ml of binding buffer (100 mM HEPES pH 7.8; 100 mM sodium chloride, 10 mM MgSO4, 0.025% Tween-20). Reagent mix for a single Packard Optiplate (Packard No. 6005190) is composed of 2.4 μl of a 1:5000 diluted purified recombinant human insulin receptor (either with or without exon 11), an amount of a stock solution of A14Tyr[^125I]-human insulin corresponding to 5000 cpm per 100 μl of reagent mix, 12 μl of a 1:1000 dilution of F12 antibody, 3 ml of SPA-beads and binding buffer to a total of 12 ml. A total of 100 μl reagent mix is then added to each well in the Packard Optiplate and a dilution series of the insulin derivative is made in the Optiplate from appropriate samples. The samples are then incubated for 16 hours while gently shaken. The phases are the then separated by centrifugation for 1 min and the plates counted in a Topcounter. The binding data were fitted using the nonlinear regression algorithm in the GraphPad Prism 2.01 (GraphPad Software, San Diego, Calif.) and affinities are expressed relative (in percentage (%)) to the affinity of human insulin.

Row | Compound | Relative IR-A affinity (@ […] HSA) (%)e [1] [%] | Relative IR-A affinity (@ 0% HSA) (%) [2] [%]
1 | CC[C@H](C)[C@H](NC(=O)CN(C)C)C(=O)N[C@H](C(=O)N[C@@H](CCC(=O)O)C(=O)N[C@@H](CCC(N)=O)C(=O)N[C@H]1CSSC[C@@H]2NC(=O)[C@H]([C@@H](C)CC)NC(=O)[C@H](CO)NC(=O)[C@H]([C@@H](C)O)NC(=O)[C@H](CSSC[C@H](NC(=O)[C@H](CC(C)C)NC(=O)[C@H](Cc3c[nH]cn3)NC(=O)[C@H](CCC(N)=O)NC(=O)[C@H](CC(N)=O)NC(=O)[C@@H](NC(=O)[C@H](Cc3ccccc3)N(C)C)C(C)C)C(=O)NCC(=O)N[C@@H](CO)C(=O)N[C@@H](Cc3c[nH]cn3)C(=O)N[C@@H](CC(C)C)C(=O)N[C@@H](C(C)C)C(=O)N[C@@H](CCC(=O)O)C(=O)N[C@@H](C)C(=O)N[C@@H](CC(C)C)C(=O)N[C@@H](Cc3ccc(O)cc3)C(=O)N[C@@H](CC(C)C)C(=O)N[C@@H](C(C)C)C(=O)N[C@H](C(=O)NCC(=O)N[C@@H](CCC(=O)O)C(=O)N[C@@H](CCCNC(=N)N)C(=O)NCC(=O)N[C@@H](Cc3ccccc3)C(=O)N[C@@H](Cc3c[nH]cn3)C(=O)N[C@@H](Cc3ccc(O)cc3)C(=O)N3CCC[C@H]3C(=O)N[C@@H](CCCCNC(=O)COCCOCCNC(=O)COCCOCCNC(=O)CC[C@H](NC(=O)CCCCCCCCCCCCCCCCC(=O)O)C(=O)O)C(=O)O)CSSC[C@@H](C(=O)N[C@@H](CC(N)=O)C(=O)O)NC(=O)[C@H](Cc3ccc(O)cc3)NC(=O)[C@H](CC(N)=O)NC(=O)[C@H](CCC(=O)O)NC(=O)[C@H](CC(C)C)NC(=O)[C@H](CCC(N)=O)NC(=O)[C@H](CCC(=O)O)NC(=O)[C@H](CC(C)C)NC(=O)[C@H](CO)NC2=O)NC1=O)C(C)C [Example 5, A1(N^α, N^α-Dimethyl), A14E, B1(N^α,N^α-dimethyl), B25H, desB27, B29K(N^εoctadecanedioyl-gGlu-2xOEG), desB30 human insulin] | 0.17 | 1.7
2 | CC[C@H](C)[C@H](NC(=O)CNC(N)=O)C(=O)N[C@H](C(=O)N[C@@H](CCC(=O)O)C(=O)N[C@@H](CCC(N)=O)C(=O)N[C@H]1CSSC[C@@H]2NC(=O)[C@H]([C@@H](C)CC)NC(=O)[C@H](CO)NC(=O)[C@H]([C@@H](C)O)NC(=O)[C@H](CSSC[C@H](NC(=O)[C@H](CC(C)C)NC(=O)[C@H](Cc3c[nH]cn3)NC(=O)[C@H](CCC(N)=O)NC(=O)[C@H](CC(N)=O)NC(=O)[C@@H](NC(=O)[C@H](Cc3ccccc3)NC(N)=O)C(C)C)C(=O)NCC(=O)N[C@@H](CO)C(=O)N[C@@H](Cc3c[nH]cn3)C(=O)N[C@@H](CC(C)C)C(=O)N[C@@H](C(C)C)C(=O)N[C@@H](CCC(=O)O)C(=O)N[C@@H](C)C(=O)N[C@@H](CC(C)C)C(=O)N[C@@H](Cc3ccc(O)cc3)C(=O)N[C@@H](CC(C)C)C(=O)N[C@@H](C(C)C)C(=O)N[C@H](C(=O)NCC(=O)N[C@@H](CCC(=O)O)C(=O)N[C@@H](CCCNC(=N)N)C(=O)NCC(=O)N[C@@H](Cc3ccccc3)C(=O)N[C@@H](Cc3c[nH]cn3)C(=O)N[C@@H](Cc3ccc(O)cc3)C(=O)N3CCC[C@H]3C(=O)N[C@@H](CCCCNC(=O)CC[C@H](NC(=O)CCCCCCCCCCCCCCCCC(=O)O)C(=O)O)C(=O)O)CSSC[C@@H](C(=O)N[C@@H](CC(N)=O)C(=O)O)NC(=O)[C@H](Cc3ccc(O)cc3)NC(=O)[C@H](CC(N)=O)NC(=O)[C@H](CCC(=O)O)NC(=O)[C@H](CC(C)C)NC(=O)[C@H](CCC(N)=O)NC(=O)[C@H](CCC(=O)O)NC(=O)[C@H](CC(C)C)NC(=O)[C@H](CO)NC2=O)NC1=O)C(C)C [Example 17, A1(N^αCarbamoyl), A14E, B1(N^αCarbamoyl), B25H, desB27, B29K(N^εoctadecandioyl-gGlu), desB30 human insulin] |  | 0.2
